{"sequences": {"note": "Chains of the proteins cited; added tags and fusions are not shown.", "UniProt P29371, whole entry": "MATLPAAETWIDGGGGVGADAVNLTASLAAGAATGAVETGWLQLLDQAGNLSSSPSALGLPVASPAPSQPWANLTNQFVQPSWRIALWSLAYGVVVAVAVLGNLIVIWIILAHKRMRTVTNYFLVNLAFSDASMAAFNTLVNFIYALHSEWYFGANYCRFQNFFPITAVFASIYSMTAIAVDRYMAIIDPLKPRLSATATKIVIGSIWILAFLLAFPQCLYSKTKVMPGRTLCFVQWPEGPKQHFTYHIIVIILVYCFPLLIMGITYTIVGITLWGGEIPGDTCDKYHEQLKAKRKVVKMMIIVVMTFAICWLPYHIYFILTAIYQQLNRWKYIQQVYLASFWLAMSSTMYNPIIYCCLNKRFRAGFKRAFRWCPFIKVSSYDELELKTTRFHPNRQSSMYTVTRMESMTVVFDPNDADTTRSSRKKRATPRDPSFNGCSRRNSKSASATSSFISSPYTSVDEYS"}, "source": "ChEMBL document CHEMBL1128788", "about": "“The development of a novel series of non-peptide tachykinin NK3 receptor selective antagonists” (Bioorg Med Chem Lett, 1995)", "molecular_target": "Neuromedin-K receptor (Homo sapiens, UniProt P29371)", "experiment": "Compound was tested for binding affinity against human Tachykinin receptor 3 in CHO cells", "assay_type": "cell-based"}
{"smiles": "CC(=O)N(C)C1(c2ccccc2)CCN(CCC[C@]2(c3ccc(Cl)c(Cl)c3)CCCN(C(=O)c3ccccc3)C2)CC1", "note": "[OSANETANT]", "values": [{"measurement": "IC50", "result": 0.21, "unit": "nM"}]}
